B1: RAC-alpha serine/threonine-protein kinase (Homo sapiens), P31749 (parent)
chain: MSDVAIVKEGWLHKRGEYIKTWRPRYFLLKNDGTFIGYKERPQDVDQREAPLNNFSVAQCQLMKTERPRPNTFIIRCLQWTTVIERTFHVETPEEREEWTTAIQTVADGLKKQEEEEMDFRSGSPSDNSGAEEMEVSLAKPKHRVTMNEFEYLKLLGKGTFGKVILVKEKATGRYYAMKILKKEVIVAKDEVAHTLTENRVLQNSRHPFLTALKYSFQTHDRLCFVMEYANGGELFFHLSRERVFSEDRARFYGAEIVSALDYLHSEKNVVYRDLKLENLMLDKDGHIKITDFGLCKEGIKDGATMKTFCGTPEYLAPEVLEDNDYGRAVDWWGLGVVMYEMMCGRLPFYNQDHEKLFELILMEEIRFPRTLGPEAKSLLSGLLKKDPKQRLGGGSEDAKEIMQHRFFAGIVWQHVYEKKLSPPFKPQVTSETDTRYFDEEFTAQMITITPPDQDDSMECVDSERRPHFPQFSYSASGTA
partner: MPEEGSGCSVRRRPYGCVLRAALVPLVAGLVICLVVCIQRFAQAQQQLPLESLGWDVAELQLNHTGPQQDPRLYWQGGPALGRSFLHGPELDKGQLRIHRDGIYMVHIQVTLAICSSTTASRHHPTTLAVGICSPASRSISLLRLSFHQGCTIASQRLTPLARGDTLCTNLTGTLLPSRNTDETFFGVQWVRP
B2: RAC-alpha serine/threonine-protein kinase (Homo sapiens), P31749 (parent)
chain: B1 chain
partner: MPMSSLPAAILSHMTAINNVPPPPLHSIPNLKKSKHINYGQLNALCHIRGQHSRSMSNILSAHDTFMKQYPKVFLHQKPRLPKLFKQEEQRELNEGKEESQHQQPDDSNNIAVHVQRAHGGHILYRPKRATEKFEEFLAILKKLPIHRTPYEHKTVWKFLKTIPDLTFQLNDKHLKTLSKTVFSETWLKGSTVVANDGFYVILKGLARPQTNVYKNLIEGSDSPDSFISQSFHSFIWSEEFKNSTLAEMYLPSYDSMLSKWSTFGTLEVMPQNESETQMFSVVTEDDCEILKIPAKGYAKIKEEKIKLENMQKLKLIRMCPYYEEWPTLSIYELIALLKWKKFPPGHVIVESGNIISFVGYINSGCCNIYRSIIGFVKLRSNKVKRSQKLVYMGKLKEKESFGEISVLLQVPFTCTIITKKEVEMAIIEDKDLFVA
B3: RAC-alpha serine/threonine-protein kinase (Homo sapiens), P31749 (parent)
chain: B1 chain
partner: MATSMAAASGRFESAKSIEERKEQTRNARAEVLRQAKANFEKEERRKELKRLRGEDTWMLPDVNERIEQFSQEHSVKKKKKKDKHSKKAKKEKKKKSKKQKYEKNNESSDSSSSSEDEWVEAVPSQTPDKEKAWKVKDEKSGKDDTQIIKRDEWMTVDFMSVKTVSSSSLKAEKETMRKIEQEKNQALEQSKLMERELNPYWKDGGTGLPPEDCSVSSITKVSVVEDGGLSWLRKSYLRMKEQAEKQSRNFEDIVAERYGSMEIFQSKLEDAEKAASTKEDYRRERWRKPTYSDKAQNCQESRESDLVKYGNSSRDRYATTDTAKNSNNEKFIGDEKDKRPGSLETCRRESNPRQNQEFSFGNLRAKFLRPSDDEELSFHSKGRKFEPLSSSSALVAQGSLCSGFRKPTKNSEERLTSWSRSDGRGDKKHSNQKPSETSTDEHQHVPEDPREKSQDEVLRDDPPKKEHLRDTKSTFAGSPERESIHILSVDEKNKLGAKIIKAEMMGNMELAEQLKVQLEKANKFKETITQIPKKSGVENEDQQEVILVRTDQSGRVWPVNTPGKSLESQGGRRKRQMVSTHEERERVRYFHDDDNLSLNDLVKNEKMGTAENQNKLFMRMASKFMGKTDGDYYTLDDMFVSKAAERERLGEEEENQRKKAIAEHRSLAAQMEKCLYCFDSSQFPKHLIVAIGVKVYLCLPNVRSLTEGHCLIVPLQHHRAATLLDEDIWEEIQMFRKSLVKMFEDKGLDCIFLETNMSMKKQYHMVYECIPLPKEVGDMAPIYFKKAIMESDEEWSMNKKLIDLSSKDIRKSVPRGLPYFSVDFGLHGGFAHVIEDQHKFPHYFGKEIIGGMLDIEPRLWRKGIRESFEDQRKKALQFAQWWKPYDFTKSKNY
B4: RAC-alpha serine/threonine-protein kinase (Homo sapiens), P31749 (parent)
chain: B1 chain
partner: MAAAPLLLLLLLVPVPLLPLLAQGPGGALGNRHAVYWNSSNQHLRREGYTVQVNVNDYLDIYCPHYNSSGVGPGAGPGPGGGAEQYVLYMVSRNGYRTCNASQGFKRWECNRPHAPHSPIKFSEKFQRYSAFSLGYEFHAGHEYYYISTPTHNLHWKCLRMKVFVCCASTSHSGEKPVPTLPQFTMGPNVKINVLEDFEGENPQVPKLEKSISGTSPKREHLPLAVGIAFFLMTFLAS
B5: RAC-alpha serine/threonine-protein kinase (Homo sapiens), P31749 (parent)
chain: B1 chain
partner: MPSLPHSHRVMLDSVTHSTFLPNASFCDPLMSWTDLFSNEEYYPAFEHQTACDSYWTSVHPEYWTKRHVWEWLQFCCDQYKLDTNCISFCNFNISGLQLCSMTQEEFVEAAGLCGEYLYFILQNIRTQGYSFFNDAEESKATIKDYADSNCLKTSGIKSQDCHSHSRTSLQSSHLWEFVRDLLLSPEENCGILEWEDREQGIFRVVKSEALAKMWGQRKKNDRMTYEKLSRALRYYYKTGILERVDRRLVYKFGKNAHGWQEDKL
B6: RAC-alpha serine/threonine-protein kinase (Homo sapiens), P31749 (parent)
chain: B1 chain
partner: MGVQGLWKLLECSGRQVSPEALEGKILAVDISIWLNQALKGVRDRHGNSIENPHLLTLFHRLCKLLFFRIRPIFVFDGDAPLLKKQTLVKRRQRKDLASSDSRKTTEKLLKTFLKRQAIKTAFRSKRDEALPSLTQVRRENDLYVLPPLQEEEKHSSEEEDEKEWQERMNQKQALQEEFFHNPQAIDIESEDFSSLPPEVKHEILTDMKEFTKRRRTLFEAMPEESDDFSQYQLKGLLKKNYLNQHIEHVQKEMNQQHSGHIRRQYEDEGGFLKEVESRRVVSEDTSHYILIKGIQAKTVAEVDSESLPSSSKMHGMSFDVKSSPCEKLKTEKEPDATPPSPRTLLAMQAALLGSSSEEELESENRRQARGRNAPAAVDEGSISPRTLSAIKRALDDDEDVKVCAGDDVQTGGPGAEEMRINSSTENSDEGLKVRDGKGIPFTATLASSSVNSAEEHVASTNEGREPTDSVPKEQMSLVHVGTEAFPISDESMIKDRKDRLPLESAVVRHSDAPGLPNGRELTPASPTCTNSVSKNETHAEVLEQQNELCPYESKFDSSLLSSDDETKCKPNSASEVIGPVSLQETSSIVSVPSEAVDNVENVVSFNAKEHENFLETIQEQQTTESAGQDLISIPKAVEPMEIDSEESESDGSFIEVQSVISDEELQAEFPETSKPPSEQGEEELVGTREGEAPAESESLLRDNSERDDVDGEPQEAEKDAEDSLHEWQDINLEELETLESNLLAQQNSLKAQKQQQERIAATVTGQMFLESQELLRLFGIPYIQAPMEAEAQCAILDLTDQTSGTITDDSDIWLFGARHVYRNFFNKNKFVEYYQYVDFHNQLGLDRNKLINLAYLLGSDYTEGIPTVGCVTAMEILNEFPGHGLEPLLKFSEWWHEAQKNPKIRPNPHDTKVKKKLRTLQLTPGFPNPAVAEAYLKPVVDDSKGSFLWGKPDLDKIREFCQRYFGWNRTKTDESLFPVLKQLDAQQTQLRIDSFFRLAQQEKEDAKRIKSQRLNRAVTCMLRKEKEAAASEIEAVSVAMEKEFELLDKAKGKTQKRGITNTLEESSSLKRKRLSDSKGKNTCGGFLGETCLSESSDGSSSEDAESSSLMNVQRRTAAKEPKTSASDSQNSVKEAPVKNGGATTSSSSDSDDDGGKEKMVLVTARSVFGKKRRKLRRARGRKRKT
B7: RAC-alpha serine/threonine-protein kinase (Homo sapiens), P31749 (parent)
chain: B1 chain
partner: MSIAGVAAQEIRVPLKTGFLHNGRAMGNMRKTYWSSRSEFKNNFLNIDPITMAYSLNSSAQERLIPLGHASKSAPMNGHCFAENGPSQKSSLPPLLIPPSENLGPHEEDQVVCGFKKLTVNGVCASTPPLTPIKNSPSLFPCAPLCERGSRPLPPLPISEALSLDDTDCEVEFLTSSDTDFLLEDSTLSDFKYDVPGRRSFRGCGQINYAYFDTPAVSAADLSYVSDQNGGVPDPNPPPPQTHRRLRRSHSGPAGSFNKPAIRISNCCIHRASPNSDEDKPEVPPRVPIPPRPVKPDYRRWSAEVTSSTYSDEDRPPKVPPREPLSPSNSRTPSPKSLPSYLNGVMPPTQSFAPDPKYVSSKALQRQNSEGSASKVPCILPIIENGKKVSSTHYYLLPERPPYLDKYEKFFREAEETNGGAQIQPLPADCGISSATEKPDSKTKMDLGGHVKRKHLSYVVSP
B8: RAC-alpha serine/threonine-protein kinase (Homo sapiens), P31749 (parent)
chain: B1 chain
partner: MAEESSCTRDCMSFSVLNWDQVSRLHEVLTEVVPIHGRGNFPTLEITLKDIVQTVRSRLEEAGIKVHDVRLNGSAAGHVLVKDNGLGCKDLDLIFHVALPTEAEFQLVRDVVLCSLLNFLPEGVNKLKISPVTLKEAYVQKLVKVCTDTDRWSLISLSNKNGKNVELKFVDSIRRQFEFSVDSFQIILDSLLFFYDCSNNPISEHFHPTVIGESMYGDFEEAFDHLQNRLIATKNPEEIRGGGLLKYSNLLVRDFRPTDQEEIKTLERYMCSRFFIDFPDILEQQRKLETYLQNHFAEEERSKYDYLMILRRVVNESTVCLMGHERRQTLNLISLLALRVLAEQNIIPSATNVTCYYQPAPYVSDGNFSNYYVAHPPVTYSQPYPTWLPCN
B9: RAC-alpha serine/threonine-protein kinase (Homo sapiens), P31749 (parent)
chain: B1 chain
partner: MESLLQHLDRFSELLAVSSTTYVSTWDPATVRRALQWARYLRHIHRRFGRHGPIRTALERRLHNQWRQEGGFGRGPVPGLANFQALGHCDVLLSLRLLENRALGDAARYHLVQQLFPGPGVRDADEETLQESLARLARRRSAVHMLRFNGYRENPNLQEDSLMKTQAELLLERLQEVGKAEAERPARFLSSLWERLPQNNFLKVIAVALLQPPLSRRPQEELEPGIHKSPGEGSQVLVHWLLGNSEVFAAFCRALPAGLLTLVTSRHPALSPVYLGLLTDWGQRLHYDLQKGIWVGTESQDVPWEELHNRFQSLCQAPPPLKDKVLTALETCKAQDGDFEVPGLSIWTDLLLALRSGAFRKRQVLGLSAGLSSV

Variants of: B1
Conditions: with cd70_human CD70, P32970

Row | Variant | effect of a mutation on the interaction
1 | E17K | causing an interaction

Variants of: B1
Conditions: with cd70_human CD70, P32970
Remark: another data set of the same source

Row | Variant | effect of a mutation on the interaction
2 | E17K | increasing interaction strength

Variants of: B2
Conditions: with cnbd1_human CNBD1, Q8NA66

Row | Variant | effect of a mutation on the interaction
3 | E17K | causing an interaction

Variants of: B3
Conditions: with CWF19L2, Q2TBE0

Row | Variant | effect of a mutation on the interaction
4 | E17K | causing an interaction

Variants of: B4
Conditions: with efna3_human EFNA3, P52797

Row | Variant | effect of a mutation on the interaction
5 | E17K | causing an interaction

Variants of: B5
Conditions: with elf5_human ELF5, Q9UKW6

Row | Variant | effect of a mutation on the interaction
6 | E17K | causing an interaction

Variants of: B5
Conditions: with elf5_human ELF5, Q9UKW6
Remark: another data set of the same source

Row | Variant | effect of a mutation on the interaction
7 | E17K | increasing interaction strength

Variants of: B6
Conditions: with ercc5_human ERCC5, P28715

Row | Variant | effect of a mutation on the interaction
8 | E17K | causing an interaction

Variants of: B7
Conditions: with errfi_human ERRFI1, Q9UJM3

Row | Variant | effect of a mutation on the interaction
9 | E17K | causing an interaction

Variants of: B7
Conditions: with errfi_human ERRFI1, Q9UJM3
Remark: another data set of the same source

Row | Variant | effect of a mutation on the interaction
10 | E17K | increasing interaction strength

Variants of: B8
Conditions: with tet5c_human TENT5C

Row | Variant | effect of a mutation on the interaction
11 | E17K | causing an interaction

Variants of: B9
Conditions: with fancf_human FANCF

Row | Variant | effect of a mutation on the interaction
12 | E17K | causing an interaction
